Holding throughout (format): biochemical
The target in one assay is human BACE-1 (Homo sapiens, UniProt P56817). Nature of the assay: in vitro BACE Assay run by CEREP (Example 15).
Assay [1] deals with T1, β-secretase (BACE) (Homo sapiens, UniProt P56817).
T1 construct: purchased Panvera
Nature of the assay: in vitro BACE Assay, Ki (Example 14). The following applies: FS1 substrate 50 μM, Km 24 μM, pH 5; for Ki: (Example 14) Ki (μM); for pKi: read-out: (Example 14) Ki.

Amino acid sequences for entries named in this document (tags omitted). Residues count along the entry.
UniProt P56817, 46-501: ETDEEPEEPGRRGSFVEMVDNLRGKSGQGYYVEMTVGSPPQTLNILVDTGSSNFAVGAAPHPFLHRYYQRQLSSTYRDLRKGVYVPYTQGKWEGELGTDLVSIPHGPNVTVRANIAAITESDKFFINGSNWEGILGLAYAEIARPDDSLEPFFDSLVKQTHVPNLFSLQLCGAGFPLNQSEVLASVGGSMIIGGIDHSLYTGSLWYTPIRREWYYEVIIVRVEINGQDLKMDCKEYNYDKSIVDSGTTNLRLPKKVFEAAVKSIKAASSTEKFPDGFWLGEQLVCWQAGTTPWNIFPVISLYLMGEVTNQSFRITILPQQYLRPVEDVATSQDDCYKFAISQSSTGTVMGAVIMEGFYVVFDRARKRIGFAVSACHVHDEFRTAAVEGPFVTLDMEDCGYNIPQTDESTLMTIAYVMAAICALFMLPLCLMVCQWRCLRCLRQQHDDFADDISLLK

Assay [2] deals with T1, β-secretase (BACE). Nature of the assay: in vitro BACE FS1 % Inhibition Assay (Example 13). Conditions: FS1 substrate, pH 5.
Setting [3] is: pH 5, read-out: % Inhibition (Example 13) @ 0.3 μM, 0.3 μM compound.
Where [4] appears, read: pH 5, read-out: % Inhibition (Example 13) @ 1 μM, 1 μM compound.
The mark [5] stands for this setting: pH 5, read-out: % Inhibition (Example 13) @ 3 μM, 3 μM compound.

pIC50, pKi: −log10 of the molar value. “And” between values parts separate entries of the source, which are not always exact repeats. Identical values can stand only once. Like-named read-outs stand apart in the source and are kept apart here.

The results in this text go back to patent US7932261B2, “Macrocycle derivatives useful as inhibitors of β-secretase (BACE)” (Janssen Pharmaceutica NV, priority 2006, dated 2011).

The pIC50 is the negative decadic logarithm of the IC50, by convention in mol/L. Read a low pIC50 as a high IC50. In general, Ki refers to a dissociation constant, usually derived from enzyme kinetics or from competition with a known ligand. Lower therefore signals a stronger hold on the target. At human BACE-1, `NC1=Nc2ccc3cc2CN1[C@H](C1CCCCC1)CCC(=O)N(C1CCCCC1)CCc1cccc(c1)O3` [Compound 2] showed a pIC50 of 7.20. In addition, on β-secretase (BACE) [1], the Ki is 0.039 µM and 0.018 µM and 0.0057 µM.
What is called inhibition is the drop in the measured response relative to a control, in per cent. For `NC1=Nc2ccc3cc2CN1[C@@H](C1CCCCC1)CCC(=O)N(C1CCCCC1)CCCc1cccc(c1)O3` [Compound 6], the inhibition at 0.3 µM at β-secretase (BACE) [2] (setting [3]) was found to be 65%. For the same molecule, at β-secretase (BACE) [2] (setting [4]), the inhibition at 1 µM turned out to be 121%. Moreover, the inhibition at 3 µM at β-secretase (BACE) [2] (setting [5]) was 122%. On β-secretase (BACE) [1], this molecule had a Ki of 0.19 µM.
For orientation: pKi means the Ki on a negative log10 scale, so that one unit is a factor of ten. With `NC1=Nc2ccc3cc2CN1[C@H](C1CCCCC1)CCC(=O)N(C1CCOCC1)CCc1cccc(c1)O3` [Compound 14], the inhibition at 0.3 µM at β-secretase (BACE) [2] (setting [3]) is 117%. For the same molecule, the inhibition at 1 µM at β-secretase (BACE) [2] (setting [4]) came to 138%. Besides, on β-secretase (BACE) [2] (setting [5]), the inhibition at 3 µM is 139%. Further, the pKi at β-secretase (BACE) [1] is 7.77.
With `NC1=Nc2ccc3cc2CN1CCC(=O)N(C1CCCCC1)CCCc1cccc(c1)O3` [Compound 1], the inhibition at 0.3 µM at β-secretase (BACE) [2] (0.3 μM compound, read-out: % Inhibition (Example 13) @ 0.3 μM) was 74%. In addition, the inhibition at 1 µM at β-secretase (BACE) [2] (1 μM compound, read-out: % Inhibition (Example 13) @ 1 μM) amounted to 105%. Also, on β-secretase (BACE) [2] (3 μM compound, read-out: % Inhibition (Example 13) @ 3 μM), the inhibition at 3 µM was found to be 117%. For the same molecule, the pKi at β-secretase (BACE) [1] is 7.29 and 7.51.
